The entries are a selection whose mix differs from that of the whole data set. Inconclusive results are not listed. Where a call stands in place of a potency, no number is given. Active and inactive are the calls of the source. The call rests on the fitted dose curve; in most records, active means well fitted inhibition curve with a large enough effect; inconclusive means small, poorly fitted or top-dose-only effect; inactive means flat fitted curve, though single readings scatter.
Potency means the concentration at half of the fitted maximal effect.

The chains behind the UniProt entries cited, without tags or fusion partners.
UniProt Q9BV86, whole entry: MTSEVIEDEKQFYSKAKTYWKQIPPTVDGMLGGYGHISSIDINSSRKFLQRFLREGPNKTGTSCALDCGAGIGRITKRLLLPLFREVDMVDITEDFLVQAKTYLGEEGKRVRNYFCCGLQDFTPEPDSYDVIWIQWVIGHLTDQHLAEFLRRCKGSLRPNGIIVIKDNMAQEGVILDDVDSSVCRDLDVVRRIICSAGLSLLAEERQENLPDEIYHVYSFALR

This assay addresses N-terminal Xaa-Pro-Lys N-methyltransferase 1 (Homo sapiens) (UniProt Q9BV86). As to the kind of experiment: Primary qHTS for Inhibitors of N-terminal methyltransferase 1 (NTMT1): MTaseGlo Assay. Further: nearly all actives have a fitted effect of over 65% in size. The note with it: NTMT1 MTase-Glo SAH luminescence, purified enzyme; series mostly up to 114 µM. An excerpt: Assay Submitter (PI): Rong Huang Ph.D.
Purdue University, West Lafayette, IN 47907
The N-terminal methytransferase 1 is the first methyltransferase that methylates protein alpha-N-amines and plays an important role in regulating cell mitosis, chromatin interactions and DNA repair. It is observed to be over-expressed in various cancer patient tissues like malignant melanoma and colorectal cancer tissues. Knockdown of NTMT1 in cancer cells causes cell mitotic defects and enhances sensitivity to DNA damaging chemotherapeutics. […] These critical cellular processes in which NTMT1 is implicated, coupled with emerging links to cellular dysfunction, strengthen the inference that NTMT1 is a compelling novel anticancer target. […] To address this unmet need, a panel of assay is created and established to enable quantitative high-throughput screening (qHTS) for novel, potent, and selective small molecule NTMT1 inhibitors. […]
MTaseGlo Assay is a luminescence screen that measure the activity of methyltransferases based on the reaction product S-adenosyl homocysteine (SAH). […]
8; Reagent; 5 uL; Dispense 5 uL of 1x MTase-Glo Detection Solution (R) to allow for ADP to be converted to ATP which was then detected with a luciferase reaction. […]
11; Detection; Luminescence; Plates were read on ViewLux detector (PerkinElmer). […]
For the molecule `CCC(=O)N(c1ccccc1)C1(COC)CCN(CCn2nnn(CC)c2=O)CC1`, the Potency entry is “inactive”.

As to `CCC(=O)N(c1ccccc1)C1(COC)CCN(CCc2cccs2)CC1`, the Potency is active: 14.1 µM.
